Molecular target: VMAT2 (Rattus norvegicus, UniProt Q01827)
Conditions: ratio of Ki values

Chains of the proteins cited; added tags and fusions are not shown.
UniProt Q01827, whole entry: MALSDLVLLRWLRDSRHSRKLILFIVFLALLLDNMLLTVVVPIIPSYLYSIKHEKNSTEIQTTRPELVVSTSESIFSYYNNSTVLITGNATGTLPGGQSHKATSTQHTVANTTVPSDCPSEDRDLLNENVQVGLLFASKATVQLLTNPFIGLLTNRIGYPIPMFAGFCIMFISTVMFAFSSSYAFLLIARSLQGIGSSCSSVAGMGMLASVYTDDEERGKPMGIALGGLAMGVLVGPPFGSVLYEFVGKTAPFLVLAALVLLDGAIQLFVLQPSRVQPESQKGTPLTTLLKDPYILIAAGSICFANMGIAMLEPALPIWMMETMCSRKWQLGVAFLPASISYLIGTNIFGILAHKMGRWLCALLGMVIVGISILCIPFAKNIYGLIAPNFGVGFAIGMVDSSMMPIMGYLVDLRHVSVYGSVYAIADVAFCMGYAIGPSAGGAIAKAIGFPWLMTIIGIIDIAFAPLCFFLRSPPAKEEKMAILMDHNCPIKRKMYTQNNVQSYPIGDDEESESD

- fold more potent than its levorotatory enantiomer at VMAT2: 8000 fold
Structure (SMILES): COc1cc2c(cc1OC)[C@H]1CC(=O)[C@H](CC(C)C)CN1CC2 [(+)-1, (3R,11bR)-Tetrabenazine]
